Consider 42 compounds from PubChem BioAssay AID590 (National Center for Advancing Translational Sciences (NCATS), 2007).

Only a part is listed here, and it is no random draw. Records with an inconclusive call do not appear. The source made the active and inactive calls. Rule as the data show it: active = max dye-equivalent concentration above about 10 nM; inconclusive = mostly about 1.1 nM to 9.6 nM; inactive = weaker than that.

This experiment is described as follows: qHTS Assay for Spectroscopic Profiling in A350 Spectral Region. To be noted: Compound autofluorescence, 340/450 nm, Alexa 350 dye-equivalents. From the text:
NIH Molecular Libraries Screening Centers Network [MLSCN]
NIH Chemical Genomics Center [NCGC]
Occasionally, the artifactual effect may originate from the compounds own spectral or other biophysical properties which generally tend to track its assay concentration. Pre-screening/profiling the library with respect to the compounds spectral properties should help one exclude false positives early on. While the most informative fluorescent profiling data set is obtained by performing a full excitation and emission scan of each well by using a monochromator-based plate reader, such an approach is practical only on a very limited scale as scanning each well requires long time. An alternative approach, applied here, is to perform plate reader scans using selected excitation and emission wavelength pairs to generate a multidimensional relational database that correlates compound concentration and the respective relative fluorescence intensity at a given wavelength set. A standard curve of Alexa 350 (A 350) present on each plate as six-point concentration series, was used to compute a normalized fluorescence response, termed dye-equivalent concentration, for each compound at each concentration.
NCGC Assay Protocol Summary:
100 mM Tris buffer, pH 8.0
The wells in columns 1 through 4 of a Kalypsys polypropylene 1536-well compound plate were filled with standard solutions of fluorophore corresponding to the spectral region of interest. Solutions of A 350 were placed in the following wells: I1, J1: 3 mM, I2, J2: 300 uM, I3, J3: 30 uM, I4, J4: zero (DMSO), K1, L1: 3 uM, K2, L2: […], K3, L3: 300 nM, K4, L4: zero (DMSO).
Six uL of buffer were dispensed to 1536-well Greiner black plates. Compounds and dye standards (23 nL) were transferred via Kalypsys PinTool. The plates were incubated for 15 min at room temperature, and then read on ViewLux (Perkin-Elmer) High-throughput CCD imager using 340 nm and 450 nm excitation and emission filter set.
Keywords: NIH Roadmap, MLSCN, MLI, MLSMR, qHTS, NCGC, A350, A-350, Fluorescent Profiling.
(In general: In qHTS, concentration-response curves come from the screen itself.)
In the case of `NC(=O)Nc1cc([As](=O)(O)O)cc(I)c1O`, the result was inactive. The same measure for `O=C(OC1CN2CCC1CC2)C12CC3CC(CC(C3)C1)C2` (configuration not stated): “inactive”; for `O=[As]c1ccc(S(=O)(=O)NCCO)cc1` (configuration not stated): “inactive”; for `[N-]=[N+]=NCC(N)=O`: “inactive”. In the case of `COc1ccccc1OP(C)(=O)Nc1ccc(C)cc1` (configuration not stated) it was “inactive”. The same measure for `N1=C(c2nnc(-c3nn[nH]n3)nn2)NNN1`: “inactive”; for `CP(=S)(Nn1cnnc1)Oc1ccccc1` (configuration not stated): “inactive”; for `O=C(O)[C@@H](O)c1ccc([As](=O)(O)O)cc1`: “inactive”. As for `CP(=O)(NC(=O)Nc1ccccc1)Oc1ccccc1` (configuration not stated), the result was inactive. In the case of `O=C(COc1ccccc1)OC1CN2CCC1CC2` (configuration not stated) it was “inactive”; in that of `Clc1n[nH]nc1-c1nn[nH][15n]1`, “inactive”; in that of `O=P1(Nc2ccccn2)COc2ccccc2OC1`, “inactive”. The same measure for `CN(CCCl)Cc1cc(Cl)c(NC2=NCCN2)c(Cl)c1`: “inactive”. In the case of `CN(C(=O)Cc1ccc(Cl)c(Cl)c1)[C@@H]1CCCC[C@H]1N1CCCC1` it was “inactive”. Take `Cc1nc2ccc3ccccc3c2s1.O=[N+]([O-])c1cc([N+](=O)[O-])c(O)c([N+](=O)[O-])c1`: the outcome was inactive. On to `O=P1(Nc2ccc(Br)cn2)COc2ccccc2OC1`, for which the outcome was inactive. The same measure for `Cc1ccc(OCC(=O)OC2CN3CCC2CC3)cc1` (configuration not stated): “inactive”. In the case of `O=P1(Nc2ncccn2)COc2ccccc2OC1` it was “inactive”.

For `O=[As](O)(O)c1ccc([As](=O)(O)O)cc1`, the result was inactive. The same measure for `O=P(Nc1nccs1)(c1ccccc1)c1nc2ccccc2s1` (configuration not stated): “inactive”; for `NC(=O)Nc1ccc([As](=O)(O)O)cc1`: “inactive”. In the case of `NS(=O)(=O)Cc1ccc([As](=O)(O)O)cc1` it was “inactive”. The same measure for `CP(=O)(Nc1ccccc1F)Oc1ccccc1` (configuration not stated): “inactive”; for `O=P1(Nc2nc3ccc(Cl)cc3s2)COc2ccccc2O1` (configuration not stated): “inactive”; for `COC(=O)c1cc2c(s1)N=C(c1ccccc1)N(C)P2(=O)N1CCOCC1` (configuration not stated): “inactive”. Turning to `[N-]=[N+]=Nc1ccc([As](=O)(O)O)cc1`, the outcome was inactive. For `O=C(OC1CN2CCC1CC2)c1cccc(Cl)c1` (configuration not stated), the outcome was inactive. In the case of `NNC(NN)NN.n1nc(-c2nn[nH]n2)n[nH]1`, the outcome was inactive. The same measure for `C[C@@H](O)COc1ccc([As](=O)(O)O)cc1N`: “inactive”; for `Cc1ccccc1NP(C)(=O)Nc1ccccc1C`: “inactive”; for `CCc1nc2c(n1)c1c(non1O)c1c2no[n+]1[O-]`: “inactive”. In the case of `COc1ccccc1OP(C)(=O)Nc1c(C)n(C)n(-c2ccccc2)c1=O` (configuration not stated) it was “inactive”; in that of `N#[O+].[C-]#N.[C-]#N.[C-]#N.[C-]#N.[C-]#N.[Fe+2].[Na+].[Na+]`, “inactive”. With `CCN(CC)CC(O)COC(=O)C(O)(c1ccccc1)C1CCCCC1` (configuration not stated), the result was inactive. In the case of `O=C(CO)Nc1ccc([As](=O)(O)O)cc1` it was “inactive”; in that of `CN(C(=O)Cc1ccccc1)[C@@H]1CC[C@@]2(CCCO2)C[C@H]1N1CCCC1`, “inactive”.

As to `C/C1=C2N=C(/C=C3N=C(/C(C)=C4\[N-][C@@](C)([C@H]5N=C1[C@@](C)(CCC(=O)NC[C@H](C)OP(=O)([O-])O[C@@H]1[C@H](O)[C@H](n6cnc7cc(C)c(C)cc76)O[C@@H]1CO)[C@@H]5CC(N)=O)[C@](C)(CC(N)=O)[C@H]4CCC(N)=O)[C@@](C)(CC(N)=O)[C@@H]\3CCC(N)=O)C(C)(C)[C@@H]/2CCC(N)=O.[C-]#N.[Co+3]`, the result was inactive. In the case of `COc1ccccc1OP(C)(=O)Nc1ccc(C)c(C)c1` (configuration not stated) it was “inactive”. Turning to `C(Cc1nn[nH]n1)c1nn[nH]n1`, the outcome was inactive. The same measure for `[N-]=[N+]=NCC(O)CN=[N+]=[N-]` (configuration not stated): “inactive”; for `O=[N+]([O-])c1ccc(C[As](=O)(O)O)cc1`: “inactive”; for `NCC[C@@H](N)CSP(=O)(O)O`: “inactive”.
